# According to ChEMBL document CHEMBL1158385, “New and selective ryanodine receptor activators for insect control” (Bioorg Med Chem, 2009):
# Legend:
# C2C12 = assay: Selectivity for Drosophila melanogaster ryanodine receptor over ryanodine receptor 1 in mouse C2C12 cells; type: cell-based
# PC-12 = assay: Selectivity for Heliothis virescens recombinant ryanodine receptor over ryanodine receptor 2 in rat PC12 cells; type: cell-based
smiles,measurement,setting,value
CNC(=O)c1cc(Cl)cc(C)c1NC(=O)c1cc(Br)nn1-c1ncccc1Cl [CHLORANTRANILIPROLE],Selectivity ratio,C2C12,300
same,Selectivity ratio,PC-12,> 2000
